Reference: patent publication US6723733B2, “Sulfonamide and carbamide derivatives of 6(5H)phenanthridinones and their uses” (Guilford Pharmaceuticals, Inc., priority 2000, dated 2004)

By UniProt entry, the sequences of proteins in these tests, tags left out.
UniProt P09874, whole entry: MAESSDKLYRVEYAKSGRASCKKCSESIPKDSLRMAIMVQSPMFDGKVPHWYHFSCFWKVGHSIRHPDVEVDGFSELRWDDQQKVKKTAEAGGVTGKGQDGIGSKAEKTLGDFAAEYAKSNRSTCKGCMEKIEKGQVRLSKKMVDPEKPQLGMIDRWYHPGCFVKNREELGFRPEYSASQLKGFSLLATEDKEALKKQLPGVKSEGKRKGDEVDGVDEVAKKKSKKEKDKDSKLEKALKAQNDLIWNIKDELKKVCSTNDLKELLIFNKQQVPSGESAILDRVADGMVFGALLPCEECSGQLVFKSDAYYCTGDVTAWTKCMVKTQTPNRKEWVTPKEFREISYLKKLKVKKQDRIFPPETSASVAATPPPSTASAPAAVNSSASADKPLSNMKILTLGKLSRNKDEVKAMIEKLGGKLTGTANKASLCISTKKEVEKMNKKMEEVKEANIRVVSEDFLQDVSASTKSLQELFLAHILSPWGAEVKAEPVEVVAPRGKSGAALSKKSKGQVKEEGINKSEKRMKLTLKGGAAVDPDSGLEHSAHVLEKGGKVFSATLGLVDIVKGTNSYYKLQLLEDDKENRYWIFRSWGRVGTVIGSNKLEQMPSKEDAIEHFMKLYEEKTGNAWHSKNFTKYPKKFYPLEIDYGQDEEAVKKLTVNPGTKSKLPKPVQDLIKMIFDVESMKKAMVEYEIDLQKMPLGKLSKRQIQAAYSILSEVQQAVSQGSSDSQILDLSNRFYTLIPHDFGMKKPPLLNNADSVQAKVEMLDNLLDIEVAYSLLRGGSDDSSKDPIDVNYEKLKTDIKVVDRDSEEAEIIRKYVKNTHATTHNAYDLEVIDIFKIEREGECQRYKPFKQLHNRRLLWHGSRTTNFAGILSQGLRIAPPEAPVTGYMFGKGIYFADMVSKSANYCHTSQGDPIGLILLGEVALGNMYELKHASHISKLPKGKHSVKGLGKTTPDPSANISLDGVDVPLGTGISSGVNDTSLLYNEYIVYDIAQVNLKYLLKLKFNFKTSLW

Molecular target: T1, purified recombinant human PARP (Homo sapiens, UniProt P09874)
T1 construct: purchased Trevigan (Gaithersburg, Md.)
Test: PARP enzyme assay (IC50), [3H]NAD incorporation
Assay type: biochemical
Details: approximate IC50 values; 25° C., 15 minutes

## O=C(O)c1ccc2c(c1)[nH]c(=O)c1cc(F)ccc12 [Compound 49]
  IC50: 21 nM

## Cc1cccc2c(=O)[nH]c3cc(C(F)(F)F)c(N)cc3c12 [Compound 46]
  IC50: 44 nM
